Assay results taken from patent US10612051B2, “Method of producing bioproducts” (White Dog Labs, Inc., priority 2015, dated 2020).

Legend:
[1] = Extraction of aqueous bioproduct solutions with 1-butene in a pressure vessel (distribution coefficient); format: physicochemical
Procedure: (§1) 100 g (grams) aqueous solutions of various bioproducts were prepared. Bioproduct initial concentration was 2%. Each of these bioproduct aqueous solutions was extracted in a pressure vessel by mixing with 100 g 1-butene (the olefin). The amount of formed extract and formed raffinate and the concentration (conc.) of the bioproduct in each were determined. Theses concentrations were used to calculate the bioproduct distribution coefficient (DC). Table 2 compares the found distribution coefficients to those of extracting with dimethyl ether (DME).

[2] = Extraction with dimethyl ether (DME), distribution coefficient for comparison; format: physicochemical; settings: extracting with dimethyl ether
Procedure: as §1

Butanol
DC (bioproduct distribution coefficient) ([1]; 1-butene / aqueous phase, Table 1): 1.04 | Extract Bioproduct conc. (%) ([1]; 100 g aqueous solution, 2% initial bioproduct, mixed with 100 g 1-butene, extract phase): 1.02% | Raffinate Bioproduct conc. (%) ([1]; 100 g aqueous solution, 2% initial bioproduct, mixed with 100 g 1-butene, raffinate phase): 0.98% | Distribution coefficient DME [2]: 2.92
